# AlphaSeq binding of Ab-14 light chain variants to a spike HR2 peptide

Source: Li et al. 2023 (doi:10.1038/s41467-023-39022-2), MIT Lincoln Laboratory and A-Alpha Bio; data file from the FLAb repository.

Binding partner: SARS-CoV-2 spike HR2 peptide, sequence PDVDLGDISGINAS.

Parent scFv Ab-14: VH joined to VL by a (GGGGS)3 linker. Changes lie in the light chain CDRs alone.
VH: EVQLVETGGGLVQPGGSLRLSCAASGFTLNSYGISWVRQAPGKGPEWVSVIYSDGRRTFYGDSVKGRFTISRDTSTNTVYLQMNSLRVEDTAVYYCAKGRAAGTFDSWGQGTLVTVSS
VL: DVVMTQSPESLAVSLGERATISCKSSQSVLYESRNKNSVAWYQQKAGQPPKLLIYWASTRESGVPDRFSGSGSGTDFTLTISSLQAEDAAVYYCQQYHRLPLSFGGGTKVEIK

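Phage display of a naive human antibody library on the peptide gave the parent. This is the validation round: designs drawn from the data on random variants, tested in the same kind of assay. Their group label is 14L_GP_HC (GP: Gaussian process model; HC: hill climbing; a sequence that several methods proposed may carry one label only). The assay is AlphaSeq: two haploid yeast populations carry antibody and antigen on their surface. Mating (16 h, 30 °C) was followed by selection of diploids and sequencing of their barcodes. Each replicate has its own calibration line, from reference interactions of the BCL2 family. Each pool was mated in six replicate cultures.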

Substitutions are numbered in sequence along the VL above, starting at 1 (not Kabat). Affinities are written as log10 Kd with Kd in nM; a lower number is a better binder. "n.d." means that the variant was in the library but no mating with the target was seen in that replicate; the authors take this as a sign of poor binding, and no number exists. The authors' rule: three or more of the six replicates give a measured affinity, fewer mean a poor binder. The range of this assay differs from that of the first round, and the authors advise against merging the two. The parent sequence was in this pool as ten entries: three were never detected, three once, and four in most replicates, with averages from 0.34 to 2.37. Three control strains display no target. For all light chain designs, 4% of the pairings with them gave a signal, with a median of 2.64 and one signal in twenty below 1.59, so weak values seen in few replicates may be background. The control count says in how many pairings with the empty strains this scFv gave a signal, with their mean in brackets.

changes | log10 Kd (nM) by replicate | signal with controls
S25F/S28W/V29W/N35T/W56N/T59Y | 0.42 0.28 0.19 0.30 0.35 0.49 | 0/18
S25I/S26P/S28G/W56G/T59V | -0.36 -0.48 -0.08 -0.53 -0.53 -0.28 | 2/18 (2.50)
S25L/S26Q/V29T/K36P | 1.09 1.04 0.44 0.50 1.31 1.48 | 0/18
Q27N/V29Y/W56E/S103M | n.d. n.d. n.d. 1.94 n.d. n.d. | 1/18 (1.08)
S25V/S26R/V29T/S38A | 0.46 0.60 0.55 0.52 0.60 0.22 | 0/18
S26M/S28G/E32Q/W56G | 0.69 0.69 0.62 0.88 0.53 0.74 | 3/18 (2.92)
S25Q/V29D/W56D/Q96A | -0.16 -0.12 -0.06 0.04 -0.05 0.05 | 0/18
S25F/N35T/S38G/W56G | 0.58 0.61 0.50 0.39 0.40 0.71 | 0/18
S25L/Q27D/W56N | n.d. n.d. n.d. n.d. n.d. n.d. | 0/18
S25M/S26E/S28G/N37M/W56G/T59V | -0.19 -0.12 -0.16 -0.34 -0.35 -0.27 | 2/18 (2.64)
K24I/S25L/Y31D/W56D | -0.06 -0.22 -0.23 -0.34 -0.10 -0.05 | 0/18
K24S/S25L/S26M/W56H/T59Q/S62D | -0.18 -0.12 -0.16 -0.36 -0.37 -0.42 | 0/18
V29I/R34V/W56H/S62E | 0.51 0.37 0.45 0.23 0.47 0.56 | 1/18 (2.24)
S25L/S26E/V29T/L30K/K36Q | n.d. n.d. n.d. n.d. 2.20 n.d. | 0/18
S25L/S26E/V29E/L30N/W56N | 0.38 0.39 0.24 0.18 0.46 0.47 | 0/18
Y31M/K36P/W56D | -0.13 -0.28 -0.30 -0.41 -0.14 -0.13 | 0/18
S25V/S26P/W56H/S62D | -0.08 -0.22 -0.18 -0.33 -0.20 -0.13 | 1/18 (3.31)
S25E/Y31F/S33W/W56D/S62Q | -0.06 0.30 -0.25 0.02 -0.20 0.21 | 1/18 (1.94)
S25L/V29Q/E32D/R34Q/W56N | 0.18 0.08 -0.01 0.05 -0.15 0.17 | 0/18
V29E/L30H/W56G | 0.09 0.08 -0.32 -0.36 -0.20 -0.13 | 1/18 (2.91)
Q27I/Y31G/W56D | -0.21 -0.33 -0.39 -0.47 -0.52 -0.05 | 0/18
S25L/S26D/S28Q/V29T/S33T/S62E | 0.08 -0.05 0.00 -0.09 -0.10 0.04 | 2/18 (2.74)
S25F/V29F/W56G/Q96A | 0.68 0.51 0.40 0.50 0.61 0.73 | 0/18
K24A/S28G/V29W/W56G/S62D | 1.09 0.89 1.45 0.34 0.06 0.84 | 0/18
S25F/Q27D/Y31L/N35T/W56D | 0.04 -0.27 -0.16 -0.20 -0.10 -0.06 | 0/18
K24S/S25L/W56M | -0.07 -0.32 -0.28 -0.75 -0.46 0.27 | 0/18
S25F/Q27D/Y31L/E32W/N35T/W56N | -0.03 -0.33 -0.53 -0.40 -0.37 -0.21 | 0/18
S26Q/S38N/W56H/S62D/H98A | 0.04 -0.02 -0.15 0.07 -0.01 0.08 | 1/18 (2.53)
Q27I/V29D/Y31G/S33K/W56E | 0.52 0.13 -0.43 0.69 0.81 -0.27 | 0/18
S25F/V29W/K36F/N37Q/W56G | 0.22 0.35 0.27 0.01 0.02 0.37 | 1/18 (3.30)
S25Q/V29M/Y31C/W56D | 0.41 -0.13 0.39 0.35 0.33 0.51 | 0/18
Q27I/V29F/W56E/S62Q | 0.14 -0.03 -0.01 -0.06 -0.13 0.15 | 1/18 (3.29)
S25V/R34M/W56N | 0.42 0.20 0.36 0.27 0.38 0.47 | 1/18 (2.50)
S25L/S26P/Q27G/V29T/N35Q | 1.72 2.24 2.38 1.99 2.08 1.20 | 1/18 (2.33)
S25F/R34G/N35T/W56N/S58V/S62T | -0.03 0.03 -0.15 -0.19 -0.23 0.00 | 0/18
Q27D/V29G/W56E | -0.18 0.13 -0.14 0.11 -0.18 0.20 | 0/18
Q27A/V29Y/K36T/W56E | 0.32 0.15 0.26 -0.04 -0.16 0.11 | 1/18 (2.33)
Q27I/V29Y/W56E/S62K/S103M | 0.48 0.36 0.28 0.37 0.45 0.67 | 3/18 (2.96)
S26L/S28L/V29W/W56H/S62Q | n.d. 2.02 3.04 1.72 2.95 1.38 | 0/18
S25M/S26L/S28A/W56H/S62D/R99Q | 0.33 -0.03 0.25 0.01 -0.12 0.33 | 2/18 (2.99)
S25L/S26V/Q27G/V29T/Y31Q/N35Q | n.d. 1.64 n.d. 2.74 2.79 2.07 | 1/18 (2.87)
S25V/V29W/L30I/W56G | 0.63 0.47 0.61 0.22 0.22 0.64 | 1/18 (2.68)
Q27F/V29Y/Y31I/W56E | -0.05 0.02 -0.04 -0.26 -0.34 0.16 | 0/18
S25M/Y31M/S33K/W56D/T59L | -0.21 -0.44 -0.15 -0.30 -0.23 -0.15 | 1/18 (2.18)
S25L/W56D/P101M | 0.03 -0.09 -0.42 -0.03 0.15 0.28 | 2/18 (2.31)
Q27S/S28V/R34F/W56N/E61M | 0.34 0.35 0.26 -0.03 0.16 0.32 | 0/18

Picked from the list: the 7 lowest averages where every replicate gave a value.

changes	log10 Kd (nM) by replicate	signal with controls
S25I/S26P/S28G/W56G/T59V	-0.36 -0.48 -0.08 -0.53 -0.53 -0.28	2/18 (2.50)
Q27I/Y31G/W56D	-0.21 -0.33 -0.39 -0.47 -0.52 -0.05	0/18
S25F/Q27D/Y31L/E32W/N35T/W56N	-0.03 -0.33 -0.53 -0.40 -0.37 -0.21	0/18
K24S/S25L/W56M	-0.07 -0.32 -0.28 -0.75 -0.46 0.27	0/18
K24S/S25L/S26M/W56H/T59Q/S62D	-0.18 -0.12 -0.16 -0.36 -0.37 -0.42	0/18
S25M/Y31M/S33K/W56D/T59L	-0.21 -0.44 -0.15 -0.30 -0.23 -0.15	1/18 (2.18)
S25M/S26E/S28G/N37M/W56G/T59V	-0.19 -0.12 -0.16 -0.34 -0.35 -0.27	2/18 (2.64)